## AlphaSeq binding of Ab-14 heavy chain variants to a spike HR2 peptide

Target peptide (SARS-CoV-2 spike, HR2 region): PDVDLGDISGINAS

Ab-14 is the parent antibody, in scFv form: VH, then a 15-residue (Gly4Ser)3 linker, then VL. The light chain is unchanged in all variants.
VH: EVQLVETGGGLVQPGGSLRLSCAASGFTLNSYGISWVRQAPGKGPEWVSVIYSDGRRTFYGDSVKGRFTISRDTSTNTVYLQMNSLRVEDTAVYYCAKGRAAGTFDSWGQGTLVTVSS
VL: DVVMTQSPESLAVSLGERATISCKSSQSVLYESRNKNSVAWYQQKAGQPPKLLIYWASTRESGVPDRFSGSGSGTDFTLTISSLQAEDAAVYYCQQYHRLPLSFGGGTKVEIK

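The starting antibody came from a phage panning campaign against this peptide. Designed CDR sequences, proposed from the first random library and measured here. Several design methods are mixed in this list. AlphaSeq pools MATa yeast showing the antibodies with MATalpha yeast showing the peptide. After mating in shaken culture at 30 °C for 16 h, diploids were selected and their barcode pairs sequenced. Each replicate has its own calibration line, from reference interactions of the BCL2 family. Mating was done six times.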

The parent's heavy chain CDRs are GFTLNSYGIS, VIYSDGRRTFYGDSVK, GRAAGTFDS; each variant's own CDRs replace them letter for letter.
Values are log10 of the apparent Kd in nM; lower means stronger binding.
Replicates are averaged; those with no signal do not enter the mean.
Where no diploid with the target was found in any replicate, the entry reads "no signal": below detection, most likely a poor binder, though not proof of it.
Of ten entries with the parent sequence, four were seen in most replicates (averages 0.34 to 2.37), three in one and three in none, so single entries are noisy.

| CDR-H1 | CDR-H2 | CDR-H3 | mean log10 Kd (nM) | seen in | signal with controls |
|---|---|---|---|---|---|
| GFNLDEYGIS | VIYADGVRKAYSSKVK | GKVWWFNLQ | no signal | 0 of 6 | 0 of 18 |
| GFDLNEYGIS | VIYADGVRTAYADDVK | GEVAGTFDT | -0.25 | 6 of 6 | 0 of 18 |
| GFSLNSYGIS | VIYSDGRRTFYGDHVK | GQTAGTFDS | 1.12 | 6 of 6 | 0 of 18 |
| GEDLDEYGVS | VIYADGIRSTYADAVK | GKHGGAFFV | 3.39 | 1 of 6 | 0 of 18 |
| GFSIDEYGIS | VIYADGVRTAVDPSVK | GQMAAIFDK | no signal | 0 of 6 | 0 of 18 |
| GFDLNEYGIS | VIYADGSRTFYSDSVK | GNVAGTFDS | 0.11 | 6 of 6 | 0 of 18 |
| GFDLNEYGIS | VIYADGRRTFYADSVK | GNQAGTFDF | -0.62 | 6 of 6 | 0 of 18 |
| GFTLDEYGIS | VIYADGRRTFYTDSVK | GNNAGTFDV | -0.76 | 6 of 6 | 1 of 18 |
| GDNLEEYGIS | VIYADGKRSVYADSVK | GHISGWFAI | no signal | 0 of 6 | 0 of 18 |
| GFTLNEYGIS | VIYSDGRRTFYGDSVK | GRVAGTFDG | 0.82 | 6 of 6 | 1 of 18 |
| GFDLNEYGIS | VIYADGMRTQYADSVK | GNVAGTFDQ | -0.35 | 6 of 6 | 0 of 18 |
| GFVLNEYGIS | VIYSDGRRTFYADSVK | GREAGTFDS | 0.32 | 6 of 6 | 0 of 18 |
| GHTLEKYGIS | VIYSDGRRTFYGDSVK | GRAAGTFCS | 1.52 | 1 of 30 | 0 of 90 |
| GFTLDTYGIS | VIYSDGRRTFYGDSVK | GAVAKTYDS | no signal | 0 of 6 | 0 of 18 |
| GFELNEYGIS | VIYSDGRRTFYGDSVK | GRAAGTFVS | no signal | 0 of 6 | 0 of 18 |
| GFDLEEYGIS | VIYADGMRTTYIDKVK | GIAGDSFLV | 1.00 | 6 of 6 | 0 of 18 |
| GENLNSYGIS | VIYSDGRRTFYGDSVK | RRAAGTFDS | no signal | 0 of 6 | 0 of 18 |
| GKDLQEYGIS | VIYADGKREQYAGDVK | GGLTGQFTV | no signal | 0 of 6 | 0 of 18 |
| GETLNSYGIS | VIYADGRRTFYSDSVK | GKAAGTFDS | 1.28 | 6 of 6 | 0 of 18 |
| GFTLNEYGVS | VIYSDGRRTFYIDSVK | GAEAGTFDS | no signal | 0 of 6 | 0 of 18 |
| GFDLNEYGIS | VIYADGQRTAYTDSVK | GEVAGTFDV | -0.09 | 6 of 6 | 0 of 18 |
| GFTLNDYGIS | VIYSDGRRTAYTDSVK | GRQAGTFDS | 0.12 | 6 of 6 | 0 of 18 |
| RFTLNSYGIS | VIYSDGRRTFYIDSVK | GRLAGTFDS | no signal | 0 of 6 | 0 of 18 |
| GFDLDNEGIS | VIYADGIRTAYQDSVK | GQNVATFNV | no signal | 0 of 6 | 0 of 18 |
| GFTLNSYGIS | VIYSDGYRTFYGDSVK | GNAAGTFDS | 2.24 | 5 of 6 | 1 of 18 |
| GFDLDEYGIS | VIYADGMRTAYPDKVK | GRETDTNVV | 1.37 | 1 of 6 | 1 of 18 |

Continued, with the values leading:

| mean log10 Kd (nM) | seen in | signal with controls | CDR-H1 | CDR-H2 | CDR-H3 |
|---|---|---|---|---|---|
| no signal | 0 of 6 | 0 of 18 | GFTLNEYGIS | VIYSDGRRTFYGQSVK | GRAAVTFDK |
| -0.62 | 6 of 6 | 0 of 18 | GFDLDEYGIS | VIYADGMRTFYADSVK | GNVAGTFDQ |
| no signal | 0 of 6 | 0 of 18 | GFSLDEMGIS | VIYADGQRTFYQASVK | GQNIGNVFV |
| -0.49 | 6 of 6 | 1 of 18 | GFSLNSYGIS | VIYSDGRRTFYADDVK | GREAGTFDS |
| 0.16 | 6 of 6 | 1 of 18 | GFDINEYGIS | VIYADGRRTAYADSVK | GNQAGTFDL |
| -0.26 | 6 of 6 | 0 of 18 | GFDLNSYGIS | VIYSDGQRTFYIDSVK | GQAAGTFDS |
| no signal | 0 of 6 | 0 of 18 | GFDLGEYGIS | VIYADGMRSAYTDKVK | GAGANIITH |
| 1.58 | 6 of 6 | 0 of 18 | GFTLNDYGIS | VIYSDGRRTFYGDSVK | GRYAGTFDT |
| -0.95 | 4 of 6 | 0 of 18 | GQLLDDYGIS | VIYADGLRKAYVDEVK | GNVAGTFDM |
| -0.05 | 6 of 6 | 0 of 18 | GFDIEEYGIS | VIYADGERTAYSNAVK | GNMAGTFLF |
| -0.78 | 6 of 6 | 0 of 18 | GFDLNEYGIS | VIYADGRRKFYADDVK | GENAGTFNV |
| -2.38 | 6 of 6 | 0 of 18 | GFDLDEYGIS | VIYADGRRTAYTDSVK | GNQAGTFDV |
| -0.33 | 6 of 6 | 0 of 18 | GFDLDEYGIS | VIYADGSRTAYADSVK | GNEAGTFDV |
| -0.06 | 6 of 6 | 0 of 18 | GFTLNEYGIS | VIYSDGRRTFYSDAVK | GRNAGTFDS |
| no signal | 0 of 6 | 0 of 18 | GFTLNEYGIS | VIYSDGRRFFRGDSVK | GRAAVTFDQ |
| no signal | 0 of 6 | 0 of 18 | GFILDEYGIS | VIYADGSRVFYADTVK | GLLGKLVVV |
| -0.31 | 6 of 6 | 0 of 18 | GFDLNEYGIS | VIYADGMRTFYTDSVK | GENAGTFDS |
| 2.11 | 1 of 6 | 0 of 18 | GFTLNSYGIS | VIYSDGRRTRYDDSVK | GQLAGTFDS |
| 2.69 | 2 of 6 | 1 of 18 | GFDLNSYGIS | VIYSDGRRTFYADSVK | GRAAATFDS |
| -0.26 | 6 of 6 | 0 of 18 | GFDLNEYGIS | VIYADGVRTFYADSVK | GENAGTFDL |
| -0.75 | 6 of 6 | 0 of 18 | GFDLDEYGIS | VIYADGQRTAYADDVK | GNVAGTFDV |
| no signal | 0 of 6 | 0 of 18 | GFDIDEYGIS | VIYADGKRQALIDAVK | GTLSGTFIA |
| 1.83 | 2 of 6 | 0 of 18 | GFTLNEYGIS | VIYSDGRRTFYTDSVK | GRTAGTFVS |
| 0.69 | 5 of 6 | 0 of 18 | GFQLNEYGIS | VIYSDGRRTFYGDSVK | GKAAGTFDS |
| -0.72 | 6 of 6 | 0 of 18 | GFDIDEYGIS | VIYADGRRTVYADSVK | GTNAGTFDS |
| 0.10 | 6 of 6 | 0 of 18 | GFDLNEYGIS | VIYADGMRTHYTDSVK | GNEAGTFDA |

For reference, 8 entries of the list once more:

CDR-H1	CDR-H2	CDR-H3	mean log10 Kd (nM)	seen in	signal with controls
RFTLNSYGIS	VIYSDGRRTFYIDSVK	GRLAGTFDS	no signal	0 of 6	0 of 18
GFDINEYGIS	VIYADGRRTAYADSVK	GNQAGTFDL	0.16	6 of 6	1 of 18
GFSLDEMGIS	VIYADGQRTFYQASVK	GQNIGNVFV	no signal	0 of 6	0 of 18
GFTLNEYGIS	VIYSDGRRTFYGQSVK	GRAAVTFDK	no signal	0 of 6	0 of 18
GFSIDEYGIS	VIYADGVRTAVDPSVK	GQMAAIFDK	no signal	0 of 6	0 of 18
GFDLDEYGIS	VIYADGRRTAYTDSVK	GNQAGTFDV	-2.38	6 of 6	0 of 18
GFVLNEYGIS	VIYSDGRRTFYADSVK	GREAGTFDS	0.32	6 of 6	0 of 18
GFDLDEYGIS	VIYADGMRTFYADSVK	GNVAGTFDQ	-0.62	6 of 6	0 of 18

The authors averaged sequences with at least three values out of six and counted those with two or fewer as poor binders.
Three control strains display no target. For all heavy chain designs, 1% of the pairings with them gave a signal, with a median of 2.08 and one signal in twenty below 0.84, so weak values seen in few replicates may be background. Also given: how often the same scFv was detected with the empty control strains.
A sequence measured in both rounds can read differently, since the two assays cover different ranges.
Where one sequence has several entries in the source, the replicates are pooled.

The measurements come from Li et al. 2023 (doi:10.1038/s41467-023-39022-2) through the FLAb antibody collection.